Counter-ions that a name gives are not always drawn.
Tested on: PI3 kinase/Akt3 and MAP kinase signaling in UACC 903 cells
Assay: Western blot analysis of melanoma cell lysates
Type: cell-based
Details: UACC 903, WM115 and 1205 Lu cells
Description: Melanoma cell line UACC 903 cells (1×10^6) are treated with increasing concentrations (7-21 μM) of PBIT and PBISe for 24 hours and cell lysates examined by Western blot analysis Cell lysates are harvested by addition of lysis buffer containing 50 mM HEPES (pH 7.5), 150 mM NaCl, 10 mM EDTA, 10% glycerol, 1% Triton X-100, 1 mM sodium orthovanadate, 0.1 mM sodium molybdate, 1 mM phenylmethylsulfonyl fluoride, 20 μg/ml aprotinin, and 5 μg/ml leupeptin. Whole cell lysates are centrifuged (≧10,000×g) for 10 minutes at 4° C. to remove cell debris. Protein concentrations are quantitated using the BCA assay (Pierce, Rockford, Ill.), and 30 μg of lysate loaded per lane onto NuPAGE Gels (Life Technologies, Carlsbad, Calif.). Following electrophoresis, samples are transferred to polyvinylidene difluoride membrane (Pall Corporation, Pensacola, Fla.). Blots are probed with antibodies to PRAS40 and phosphorylated PRAS40 (Thr246) (Invitrogen, Carlsbad, Calif.); antibodies to iNOS, cyclin D1, p27, p21, Erk2, α-enolase and secondary antibodies conjugated with horseradish peroxidase from Santa Cruz Biotechnology (Santa Cruz, Calif.); and antibodies to Akt3, phosphorylated-Akt (Ser473), phosphorylated-Erk 1/2 (Thr202/Tyr204), caspase-3 and cleaved PARP from Cell Signaling Technology (Danvers, Mass.). Immunoblots are developed using ECL (Pierce, Rockford, Ill.).

| SMILES | pErk1/2 |
| --- | --- |
| N=C(N)[Se]CCc1ccc(CC[Se]C(=N)N)cc1 [PBISe, s,s′-1,4-phenylene-bis(1,2-ethanediyl)bis-isoselenourea dihydrobromide] | increased |
| Br.Br.N=C(N)SCCc1ccc(CCSC(=N)N)cc1 [PBIT, s,s′-1,4-phenylene-bis(1,2-ethanediyl)bis-isothiourea dihydrobromide, reference compound] | increased |
